Source: PubChem BioAssay
A selection: hits, their analogues and other compounds. The true share with any hit is near 1.7%.
CAL PDZ FP-1 = CAL PDZ peptide-binding inhibitors, primary screen, biochemical, fluorescence polarization, Cer-tagged CAL PDZ, HTS. purified CAL PDZ, TMR-peptide fluorescence polarization, 1 h. inhibition, % at 20 µM. 330,000 compounds, 0.02% hits;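 active means highest replicate inhibition of at least 40%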;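 further: plate controls were DMSO neutral control wells for no effect and unlabeled competitor peptide control wells for full effect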
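material = purified tagged CAL PDZ domain construct (CerCALP) | buffer or medium = sodium phosphate/NaCl buffer pH 7.4 with TCEP, IgG, Thesit | reagent = TMR-labelled reporter peptide T*-PRC34 bound in PDZ groove | incubation = 1 h room-temperature incubation prior to read | measured by = fluorescence polarization (mP) | evaluation = percent inhibition from loss of millipolarization | control set = unlabelled peptide and DMSO controls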
UUG fidelity = modulators of yeast start codon fidelity, primary screen, whole organism, S. cerevisiae, single point, plate reader | AID 602363, 2012 | actives 0.13% (n = 350,000) | activity score, % at 18.7 µM | S. cerevisiae UUG-firefly luciferase reporter, luminescence/redox ratio;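 active means replicate mean at a twofold rise or more, about +100% in these data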;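 further: firefly luciferase made from a UUG start codon reports start codon fidelity; reporter light over untreated wells divided by growth signal over untreated wells; some hits fall short of that in this replicate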
dFosB act-1 = activators of delta FosB homodimer, primary screen, biochemical, fluorescence polarization, TAMRA-CDK5 oligo, single point; Protein FosB (Mus musculus), P13346; purified delta FosB; percent of positive-control signal above neutral wells; 340,000 compounds, 0.99% hits; activation, % at 25 µM;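 active means mean activation above about 17%, with every replicate also reaching it, limit read from the data, passing the limit was not always enough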
CAL PDZ FP-2 = untagged CAL PDZ binding inhibitors, primary screen, biochemical, fluorescence polarization, HTS | purified CAL PDZ, TMR-peptide fluorescence polarization, 1 h | inhibition, % at 24.9 µM | 300,000 compounds, 0.92% hits;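 active means mean inhibition of at least 30% with at least half of replicates also reaching 30%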;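 further: 0% = DMSO neutral control and 100% = excess unlabeled competitor peptide PRC23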
CDK5 p35 inh = inhibitors of human CDK5/p35 kinase, primary screen, biochemical, single concentration; Cyclin-dependent kinase 5 (Homo sapiens) + Cyclin-dependent kinase 5 activator 1 (Homo …; Recombinant CDK5/p35, ADP-Glo luminescence, 60 min; inhibition, % at 10 µM; 330,000 compounds, 0.01% hits; AID 488839, 2010;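 active means highest replicate inhibition of at least 50% and at least 75% of replicates reaching 50%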;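 further: plate controls were DMSO neutral control for no effect and GW8510 at 10 µM for full effect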
DYRK1A inh = rat Dyrk1A kinase inhibitors, primary screen, biochemical, single point, plate reader | Dual specificity tyrosine-phosphorylation-regulated kinase 1A (Rattus norvegicus), Q63470 | ADP-Glo luminescence, NFATc1 peptide | inhibition, % at 12.5 µM | 310,000 compounds, 0.43% hits | AID 504441, 2011; in the data active means inhibition above about 50%;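 further: plate controls were vehicle with enzyme for no effect and no enzyme for full effect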
dFosB act-2 = activators of mouse delta FosB DNA binding, confirmation, biochemical, fluorescence polarization, TAMRA-CDK5 oligo, cherry-picked samples; shares compounds with dFosB act-1; purified delta FosB; normalised: neutral wells 0, positive control 100; activation, % at 24.9 µM; 2,400 tested, under 10 active; AID 588690, 2011;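 active means highest replicate activation at or above 34% and every replicate reaching that threshold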;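 further: higher polarization means more probe DNA bound by delta FosB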
Active calls of the source: *; / = not tested or not shown.

nr	SMILES	CAL PDZ FP-1	UUG fidelity	dFosB act-1	CAL PDZ FP-2
1	COCC#Cc1ccc2c(c1)O[C@@H](CN(C)C(=O)Nc1ccc(OC)cc1)[C@@H](C)CN([C@@H](C)CO)S2(=O)=O	/	-3.7	/	/
2	C[C@H]1CN([C@@H](C)CO)C(=O)c2cc(C#CC3CC3)cnc2O[C@@H]1CN(C)Cc1ccccn1	/	-14.3	/	/
3	Cc1nn(Cc2c(Cl)cccc2Cl)c(Cl)c1/C=N/NC(=O)c1cccnc1	-3.1	/	55.5*	-2.4
4	O=C(N/N=C/c1c(O)n(-c2ccccc2Cl)c(=O)c2ccccc12)c1cccnc1	0.4	/	-7.7	/
5	Cc1nn(-c2cccc(Cl)c2)c(Cl)c1/C=N/NC(=O)c1cccnc1	-2.7	/	22.5*	1.4
6	Cc1nn(-c2ccc(F)cc2)c(Cl)c1/C=N/NC(=O)c1cccs1	-2.6	/	39.1*	-2.0
7	Nc1nccc(-c2cc(-c3ccc(Cl)cc3Cl)no2)n1	1.2	-21.1	93.1*	-4.3
8	O=C(Nc1ccccc1F)N[C@@H]1CC[C@@H](CCNS(=O)(=O)c2ccc(Cl)cc2)O[C@H]1CO	/	-4.5	/	/

nr	CDK5 p35 inh	DYRK1A inh	dFosB act-2
1	/	/	/
2	/	/	/
3	0.4	-5.3	3.7
4	-0.3	23.5	/
5	-0.5	3.2	-0.3
6	0.1	-2.8	-3.0
7	-0.1	/	-15.4
8	/	/	/

(listing goes on)
nr	SMILES	CAL PDZ FP-1	UUG fidelity	dFosB act-1	CAL PDZ FP-2
9	Cn1c(SCC(=O)Nc2nccs2)nnc1-c1ccc(S(=O)(=O)N2CCCC2)cc1	-0.4	-22.7	-3.2	2.1
10	O=C(CSc1n[nH]c(-c2ccc(S(=O)(=O)N3CCCCC3)cc2)n1)Nc1nccs1	-4.3	/	63.6*	-6.4
11	O=C(C[C@@H]1CC[C@@H]2[C@H](COC[C@H](O)CN2S(=O)(=O)c2ccccc2Cl)O1)N1CCC(Cc2ccccc2)CC1	/	4.1	/	/
12	OCCNc1nc(Nc2ccc(O)cc2)nc2ccccc12	4.0	-17.5	19.4*	-3.9
13	C[C@H]1CN([C@@H](C)CO)C(=O)Cc2cc(NC(=O)Nc3ccc4c(c3)OCO4)ccc2O[C@@H]1CN(C)CC1CCCCC1	/	14.8	/	/
14	CN1c2ccc(-c3cccc(F)c3)cc2[C@@H]2[C@@H](CCN2S(=O)(=O)c2cccc(F)c2)[C@H]1CO	/	-11.0	/	/
15	Cc1c(C(=O)Nc2ccc(S(N)(=O)=O)cc2)oc2ccc(Cl)cc12	-1.6	/	26.7*	3.1
16	COc1ccc(NC(=O)Nc2ccc3c(c2)CC(=O)N([C@@H](C)CO)C[C@@H](C)[C@H](CN(C)Cc2ccc(-c4ccccc4)cc2)O3)cc1	/	5.8	/	/

nr	CDK5 p35 inh	DYRK1A inh	dFosB act-2
9	-0.8	-4.8	/
10	-0.6	-6.1	5.1
11	/	/	/
12	-0.4	47.0	3.5
13	/	/	/
14	/	/	/
15	-0.2	-4.1	2.0
16	/	/	/

Ordered by formula weight (rising): 3 of the compounds above
nr	SMILES	CAL PDZ FP-1	UUG fidelity	dFosB act-1	CAL PDZ FP-2
15	Cc1c(C(=O)Nc2ccc(S(N)(=O)=O)cc2)oc2ccc(Cl)cc12	-1.6	/	26.7*	3.1
11	O=C(C[C@@H]1CC[C@@H]2[C@H](COC[C@H](O)CN2S(=O)(=O)c2ccccc2Cl)O1)N1CCC(Cc2ccccc2)CC1	/	4.1	/	/
16	COc1ccc(NC(=O)Nc2ccc3c(c2)CC(=O)N([C@@H](C)CO)C[C@@H](C)[C@H](CN(C)Cc2ccc(-c4ccccc4)cc2)O3)cc1	/	5.8	/	/

nr	CDK5 p35 inh	DYRK1A inh	dFosB act-2
15	-0.2	-4.1	2.0
11	/	/	/
16	/	/	/

(more compounds)
nr	SMILES	CAL PDZ FP-1	UUG fidelity	dFosB act-1	CAL PDZ FP-2
17	O=S(=O)(N[C@@H]1CC[C@@H](CCn2cc(C3(O)CCCC3)nn2)O[C@@H]1CO)c1ccc(F)cc1	/	-9.1	/	/
18	Cc1ccc(S(=O)(=O)Nc2ccc3c(c2)CC(=O)N([C@H](C)CO)C[C@@H](C)[C@H](CN(C)Cc2ccc(-c4ccccc4)cc2)O3)cc1	0.0	16.2	28.0*	-2.7
19	Cc1ccc(S(=O)(=O)Nc2ccc3c(c2)CC(=O)N([C@@H](C)CO)C[C@@H](C)[C@@H](CN(C)Cc2ccc(-c4ccccc4)cc2)O3)cc1	/	22.7	/	/
20	CCN(CCCNC(=O)Cn1ncc2c([nH]c3ccccc32)c1=O)Cc1ccccc1	-3.2	-14.5	5.6	-0.6
21	O=C(Cn1ncc2c([nH]c3ccccc32)c1=O)NCCc1ccccc1	-2.2	-2.3	43.5*	-2.2
22	Cc1noc(C)c1S(=O)(=O)Nc1ccc2c(c1)C(=O)N([C@@H](C)CO)C[C@@H](C)[C@H](CN(C)Cc1ccc(Cl)c(Cl)c1)OCCCC[C@@H](C)O2	/	18.1	/	/

nr	CDK5 p35 inh	DYRK1A inh	dFosB act-2
17	/	/	/
18	0.4	3.4	1.9
19	/	/	/
20	2.0	-2.1	/
21	3.4	4.9	-1.4
22	/	/	/
